EC50 and Ki data for one compound are collected here from ChEMBL document CHEMBL4368902 (J Med Chem, 2019).

Amino acid sequences for entries named in this document (tags omitted).
UniProt Q92847, whole entry: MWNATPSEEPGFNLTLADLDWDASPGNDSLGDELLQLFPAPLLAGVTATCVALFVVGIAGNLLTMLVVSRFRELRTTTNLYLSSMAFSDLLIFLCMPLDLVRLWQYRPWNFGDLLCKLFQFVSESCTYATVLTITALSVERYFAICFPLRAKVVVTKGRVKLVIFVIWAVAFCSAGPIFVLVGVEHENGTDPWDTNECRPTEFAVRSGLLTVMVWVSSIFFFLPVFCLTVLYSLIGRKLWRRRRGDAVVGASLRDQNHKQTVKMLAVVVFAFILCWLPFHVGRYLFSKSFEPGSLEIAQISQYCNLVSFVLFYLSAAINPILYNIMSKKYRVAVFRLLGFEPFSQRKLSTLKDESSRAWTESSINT

Test [1] concerns the target T1, Growth hormone secretagogue receptor type 1 (Homo sapiens, UniProt Q92847). In words: Inverse agonist activity at SNAP-tagged human GHSR expressed in HEK293T cells assessed as reduction in inositol phosphate production after 30 mins by HTRF assay. It is filed as functional, cell-based. (In general: TR-FRET usually uses a lanthanide donor and a delayed reading to cut background.)

Test [2] deals with T1, Growth hormone secretagogue receptor type 1. In words: Displacement of […] from SNAP-tagged human GHSR expressed in HEK293T cells after 3 hrs by HTRF assay. It is filed as cell-based.

The EC50 is the concentration that produces a half-maximal response. In general, Ki refers to the dissociation constant of the complex between target and ligand, obtained from inhibition or displacement. Read a high Ki as weaker binding. Regarding `CC(C)C[C@H](NC(=O)[C@H](CC(C)C)NC(=O)[C@@H](Cc1c[nH]c2ccccc12)NC(=O)[C@H](Cc1ccccc1)NC(=O)[C@@H](Cc1c[nH]c2ccccc12)NC(=O)[C@H](CCC(N)=O)NC(=O)[C@@H](Cc1ccccc1)NC(=O)[C@@H]1CCCN1C(=O)[C@H](CCCCN)NC(=O)[C@@H]1CCCN1C(=O)[C@H](N)CCCN=C(N)N)C(N)=O`, the EC50 in test [1] turned out to be 98.7 nM. The compound also registered an inhibition constant (Ki) in test [2] of 76.7 nM.
